These results are taken from US6790447B1, “Peptides for treatment of autoimmune diseases” (priority 1994, dated 2004).

For one assay, the system named is IRBP induced uveitis. Put plainly: IRBP-induced uveitis after oral administration of antigens (oral tolerance). In kind it is in vivo, Lewis rats. The note with it: induction with IRBP; oral feeding. On the procedure:
(§1) Groups of 8-16 Lewis rats (age 6-8 weeks, weight ca. 200 grams) have been fed with the peptide B27PD, the corresponding retinal protein (retinal S-antigen (S-Ag) or IRBP), a peptide of the retinal S-antigen (truncated equivalent to P35: PDSAg), an irrelevant control protein (ovalbumin from hen egg (OVA)), an irrelevant control peptide (B7PD) or physiological salt solution (PBS).
(§2) The peptides have been applied orally every other day at dosages of 200 μg each time dissolved in PBS, while the proteins were used in 1 mg dosages. Two days after the third and final administration of the proteins or peptides, respectively, uveitis was induced by immunization with the retinal antigens (S-antigen or IRBP, 35 or 20 μg, respectively, emulsified in adjuvant), which are well known to induce uveitis in the rat model. […]
(§3) The protective effect of orally administered antigens was clinically seen by an ameliorated course of the disease or completely missing clinical symptoms, which was confirmed by histological examination. The histological evaluation consists of a grading of inflammatory signs in the tissue and destruction of the retina, the clinical grading refers to inflammatory signs of the conjunctiva and the anterior segment of the eye, which can be observed readily and are not necessarily correlated with the visual acuity.

In assay [1] the test system is S-antigen-induced uveitis. Put plainly: S-antigen-induced uveitis after oral administration of antigens (oral tolerance). In kind it is in vivo, Lewis rats. Conditions: induction with S-antigen. The protocol: as §1, §2, §3

Turning to “S-antigen: retinal S-antigen, protein from the photoreceptor layer of the eye”, the therapeutic properties result in the assay with IRBP induced uveitis is “no therapeutic properties”. Further, the “clinical symptoms reduced to” value in assay [1] (oral administration, compared to group fed control protein (ovalbumin), peptides 200 μg, proteins 1 mg, three doses every other day) is given as 41%. In addition, the “uveitis reduced by (histological evaluation)” value in assay [1] (oral feeding, compared to ovalbumin fed control groups) amounted to 57%.
